Test: in vitro
Settings: rat, l6

SMILES: N#CCCCCCCCCNc1c2c(nc3ccccc13)CCCC2
- selectivity ratio: 4.2

Reference: ChEMBL document CHEMBL3856254, “Synthesis and biological evaluation of N-cyanoalkyl-, N-aminoalkyl-, and N-guanidinoalkyl-substituted 4-aminoquinoline derivatives as potent, selective, brain permeable antitrypanosomal agents” (Bioorg Med Chem, 2016)
